{"sequences": {"note": "Amino acid sequences for entries named in this document (tags omitted). Residues count along the entry.", "UniProt P10636, 1-352 isoform P10636-2 C233S": "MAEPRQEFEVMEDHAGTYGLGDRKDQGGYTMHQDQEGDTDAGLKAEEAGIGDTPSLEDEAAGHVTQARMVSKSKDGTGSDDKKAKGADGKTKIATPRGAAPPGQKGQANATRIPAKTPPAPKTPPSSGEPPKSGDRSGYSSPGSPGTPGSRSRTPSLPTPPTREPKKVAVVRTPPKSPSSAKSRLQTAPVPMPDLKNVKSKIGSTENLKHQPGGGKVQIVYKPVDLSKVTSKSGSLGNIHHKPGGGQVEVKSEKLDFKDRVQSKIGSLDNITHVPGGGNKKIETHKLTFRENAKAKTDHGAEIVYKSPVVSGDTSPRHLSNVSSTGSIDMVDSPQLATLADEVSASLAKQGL"}, "source": "paper PMC12482674", "about": "(Alzheimer's Research & Therapy, 2025)", "target": "AD brain-derived tau seeds (Homo sapiens, UniProt P10636, C639S)", "assay_type": "biochemical"}
{"molecule": "COc1cccc2c1C(=O)c1c(O)c3c(c(O)c1C2=O)C[C@@](O)(C(=O)CO)C[C@@H]3O[C@H]1C[C@H](N)[C@@H](O)[C@H](C)O1", "note": "[Epirubicin]", "values": [{"measurement": "maximum thioflavin fluorescence (ThT Max)", "value": "complete inhibitory effect"}, {"measurement": "time to threshold (TTT)", "value": "complete inhibitory effect"}]}
